Data set [1] concerns the target T1, Interleukin-8 (Homo sapiens, UniProt P10145).
T1 sequence (P10145 whole entry): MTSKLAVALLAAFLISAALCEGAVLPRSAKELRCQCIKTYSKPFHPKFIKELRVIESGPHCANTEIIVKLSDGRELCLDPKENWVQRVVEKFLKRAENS
The data set can be described thus: SAR analysis of Tumor necrosis factor alpha (TNF-alpha) induced IL-8 secretion in MCF-7/NOD1 cells - Set 2. [Related pubchem assays (depositor defined):AID1575, AID2250, AID2260]. The class given is functional, cell-based.

Amino acid sequences for entries named in this document (tags omitted).
UniProt P33261, whole entry: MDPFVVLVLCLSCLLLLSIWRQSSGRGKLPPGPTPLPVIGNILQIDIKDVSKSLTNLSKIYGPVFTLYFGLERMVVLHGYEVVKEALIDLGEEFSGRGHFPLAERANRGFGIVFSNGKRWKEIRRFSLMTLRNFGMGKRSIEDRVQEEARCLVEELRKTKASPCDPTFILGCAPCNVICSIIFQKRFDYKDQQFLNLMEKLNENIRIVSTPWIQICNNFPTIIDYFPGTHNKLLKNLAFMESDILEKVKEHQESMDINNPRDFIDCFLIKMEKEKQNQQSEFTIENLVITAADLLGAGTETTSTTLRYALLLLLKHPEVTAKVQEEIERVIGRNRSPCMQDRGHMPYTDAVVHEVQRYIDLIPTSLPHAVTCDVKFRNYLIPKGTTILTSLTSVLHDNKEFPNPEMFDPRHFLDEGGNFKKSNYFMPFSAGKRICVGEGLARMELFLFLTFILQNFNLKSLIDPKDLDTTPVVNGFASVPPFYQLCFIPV
UniProt P11712, whole entry: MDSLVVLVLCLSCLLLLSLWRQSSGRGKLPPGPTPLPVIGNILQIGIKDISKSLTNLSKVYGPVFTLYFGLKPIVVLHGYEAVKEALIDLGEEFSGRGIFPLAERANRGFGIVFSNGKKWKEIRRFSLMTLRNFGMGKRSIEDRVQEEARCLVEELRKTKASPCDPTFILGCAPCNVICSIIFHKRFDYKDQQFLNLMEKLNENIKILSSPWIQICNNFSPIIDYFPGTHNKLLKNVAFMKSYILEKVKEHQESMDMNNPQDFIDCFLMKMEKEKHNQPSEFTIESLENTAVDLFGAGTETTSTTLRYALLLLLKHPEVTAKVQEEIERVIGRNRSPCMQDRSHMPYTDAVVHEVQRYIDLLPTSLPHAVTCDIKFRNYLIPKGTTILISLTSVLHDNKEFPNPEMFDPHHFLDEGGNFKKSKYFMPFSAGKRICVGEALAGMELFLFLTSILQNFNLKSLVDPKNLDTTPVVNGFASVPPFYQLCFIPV
UniProt P10635, whole entry: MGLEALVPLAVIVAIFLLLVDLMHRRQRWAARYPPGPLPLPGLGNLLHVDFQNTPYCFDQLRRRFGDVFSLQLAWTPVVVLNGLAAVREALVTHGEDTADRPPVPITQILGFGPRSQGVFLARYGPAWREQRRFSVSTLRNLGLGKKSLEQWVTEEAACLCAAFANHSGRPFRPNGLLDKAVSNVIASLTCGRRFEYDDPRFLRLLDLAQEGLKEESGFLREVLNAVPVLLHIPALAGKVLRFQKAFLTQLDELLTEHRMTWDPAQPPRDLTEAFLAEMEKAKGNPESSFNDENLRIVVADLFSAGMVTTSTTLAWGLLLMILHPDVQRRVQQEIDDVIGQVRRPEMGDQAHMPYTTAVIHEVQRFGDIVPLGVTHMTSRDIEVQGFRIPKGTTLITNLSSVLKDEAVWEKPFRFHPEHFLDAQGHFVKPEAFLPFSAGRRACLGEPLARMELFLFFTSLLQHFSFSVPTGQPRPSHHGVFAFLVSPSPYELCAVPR
UniProt P05177, whole entry: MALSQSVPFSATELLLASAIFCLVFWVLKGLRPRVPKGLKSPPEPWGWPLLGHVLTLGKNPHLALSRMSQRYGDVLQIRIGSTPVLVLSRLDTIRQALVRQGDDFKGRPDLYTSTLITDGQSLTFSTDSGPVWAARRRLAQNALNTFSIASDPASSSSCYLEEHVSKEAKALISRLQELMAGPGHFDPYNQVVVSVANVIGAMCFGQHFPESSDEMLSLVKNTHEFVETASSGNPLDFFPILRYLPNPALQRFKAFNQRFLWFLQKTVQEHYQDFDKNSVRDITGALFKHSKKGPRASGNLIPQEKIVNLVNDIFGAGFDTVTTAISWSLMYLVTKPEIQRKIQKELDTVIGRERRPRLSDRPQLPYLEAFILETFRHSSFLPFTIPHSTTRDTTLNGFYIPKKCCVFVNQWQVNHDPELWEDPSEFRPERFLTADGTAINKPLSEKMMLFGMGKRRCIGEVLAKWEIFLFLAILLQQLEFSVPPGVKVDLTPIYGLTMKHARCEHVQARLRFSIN

The target of data set [2] is T2, Nucleotide-binding oligomerization domain-containing protein 1 (Homo sapiens, UniProt Q9Y239).
T2 sequence (Q9Y239 whole entry): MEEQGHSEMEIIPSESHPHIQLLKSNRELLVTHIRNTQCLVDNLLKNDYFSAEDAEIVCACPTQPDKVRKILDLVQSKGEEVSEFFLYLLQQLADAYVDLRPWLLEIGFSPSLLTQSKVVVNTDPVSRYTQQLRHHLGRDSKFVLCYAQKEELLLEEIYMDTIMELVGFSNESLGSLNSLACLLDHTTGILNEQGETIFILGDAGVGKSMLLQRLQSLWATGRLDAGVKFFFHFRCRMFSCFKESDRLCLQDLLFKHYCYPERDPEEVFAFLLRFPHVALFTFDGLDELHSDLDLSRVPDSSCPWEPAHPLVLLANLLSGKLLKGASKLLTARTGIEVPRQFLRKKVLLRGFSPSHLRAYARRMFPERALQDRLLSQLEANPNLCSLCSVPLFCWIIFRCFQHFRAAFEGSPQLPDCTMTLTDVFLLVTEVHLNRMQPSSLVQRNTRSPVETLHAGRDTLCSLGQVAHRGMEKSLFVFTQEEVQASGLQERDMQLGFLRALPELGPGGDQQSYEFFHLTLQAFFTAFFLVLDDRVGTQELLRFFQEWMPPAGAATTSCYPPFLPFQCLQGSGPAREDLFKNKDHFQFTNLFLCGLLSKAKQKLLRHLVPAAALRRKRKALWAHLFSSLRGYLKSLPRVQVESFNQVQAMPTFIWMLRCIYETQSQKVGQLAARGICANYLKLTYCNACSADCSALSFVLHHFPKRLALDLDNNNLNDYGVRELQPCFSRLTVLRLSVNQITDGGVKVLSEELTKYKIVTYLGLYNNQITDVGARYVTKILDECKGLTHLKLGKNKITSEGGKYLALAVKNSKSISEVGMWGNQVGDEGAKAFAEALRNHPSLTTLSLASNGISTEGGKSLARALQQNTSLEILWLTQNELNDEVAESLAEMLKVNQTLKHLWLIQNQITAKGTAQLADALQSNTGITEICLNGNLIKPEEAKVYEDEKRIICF
In words: blockers of NOD1 pathway activity – revised, SAR follow-up (AID 2333). The class given is functional.

The test system of data set [3] is HEK293. In words: inhibition of NOD1-driven NF-kB reporter – cell-based, luminescence, uHTS, primary screen (AID 1578). The class given is functional. Conditions: Homo sapiens.
Data set [4] deals with T1, Interleukin-8. In words: SAR analysis of tumor necrosis factor alpha (TNF-alpha) induced IL-8 secretion in MCF-7/NOD1 cells. [Related pubchem assays (depositor defined):AID1575, AID2250, AID2260]. The class given is functional, cell-based.
The target of data set [5] is T2, Nucleotide-binding oligomerization domain-containing protein 1. The data set can be described thus: SAR analysis of compounds that inhibit NOD1 - Set 2. [Related pubchem assays (depositor defined):AID1566, AID1575, AID1578, AID1849, AID1852, AID2333, AID2335, AID2798]. It is filed as functional.
In data set [6] the target is Cytochrome P450 2C19 (Homo sapiens, UniProt P33261). The data set can be described thus: Cytochrome panel assay with activity outcomes. Panel member name: p450-cyp2c19 Compounds with AC50 equal or less than 10 uM are considered active. The class given is functional.
Data set [7] has as its target Cytochrome P450 2C9 (Homo sapiens, UniProt P11712).
The target of data set [8] is Cytochrome P450 2D6 (Homo sapiens, UniProt P10635).
In data set [9] the target is Cytochrome P450 1A2 (Homo sapiens, UniProt P05177).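 Also: PubChem cytochrome P450 panel assay, CYP1A2 panel member.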

Molecules are shown by their SMILES. Activity calls are given as the source filed them. A value given as a limit tells only on which side of the number the result lay.

Turning to `Cc1ccc(S(=O)(=O)n2c(N)nc3ccccc32)cc1`, the IC50 in data set [1] is inactive: > 25000 nM; in data set [2], active: 706 nM; in data set [4] it was inactive: > 25000 nM; in data set [5] it was active: 720 nM. Moreover, in data set [3], the half-maximal effective concentration (EC50) was active: 460 nM.
On to `O=C(O)CCCC[C@H]1SC[C@H]2NC(=O)N[C@@H]21`, for which the AC50 entry in data set [6], in data set [7], in data set [8] and in [9] was “inactive” throughout.
In the case of `COc1cccc2c1C(=O)c1c(O)c3c(c(O)c1C2=O)C[C@@](O)(C(C)=O)C[C@@H]3O[C@H]1C[C@H](N)[C@H](O)[C@H](C)O1` [DAUNORUBICIN], the AC50 result in [6] and in data set [7] was “inactive” in each case.

The term IC50 denotes the concentration that inhibits the measured activity by half. As a reminder, the EC50 is the concentration needed to bring the measured effect to its halfway point.

The record behind these values is ChEMBL document CHEMBL1201862, “PubChem BioAssay data set” (2004).
